{"source": "patent US6512003B2", "about": "“Synthetic spiroketal pyranes as potent anti-cancer agents and use” (Parker Hughes Institute, priority 1998, dated 2003)", "origin": "cited, not measured here", "tested_on": "NCI panel of 60 human cancer cell lines", "conditions": "cited from earlier work"}
{"substance": "Spongistatin", "values": [{"measurement": "IC50 values, cytotoxicity", "value": "subnanomolar"}]}
